Values quoted from earlier work in article PMC7190706, “A Self-Assembling Lipidic Peptide and Selective Partial V2 Receptor Agonist Inhibits Urine Production” (Scientific Reports, 2020).

System: human V1b receptor
Details: lower EC50 than against the human V2 receptor; cited from earlier work

In the case of desmopressin, the “agonism at the human V1b receptor” value is given as “potent agonist”.
